Tested on: tumor cell lines
Settings: across the tumor cell lines assayed; 48 hours of exposure; SRB

| SMILES | cytotoxic activity against the tumor cell lines assayed (ranking in words) |
| --- | --- |
| CO[C@H](C(=O)[C@@H](O)[C@@H](C)O)[C@@H]1Cc2cc3cc(O[C@H]4C[C@@H](O[C@H]5C[C@@H](O)[C@H](O)C(C)O5)[C@H](O)C(C)O4)c(C)c(O)c3c(O)c2C(=O)[C@H]1O[C@H]1C[C@@H](O[C@H]2C[C@@H](O[C@H]3C[C@@H](O)[C@H](O)C(C)O3)[C@@H](O)C(C)O2)[C@H](O)C(C)O1 (stereo partly drawn) [formula VIII] | the most active (with an activity similar to that of MTM) |
| CO[C@H](C(=O)[C@@H](O)[C@@H](C)O)[C@@H]1Cc2cc3cc(O[C@H]4C[C@@H](O[C@H]5C[C@@H](O)[C@H](O)C(C)O5)[C@H](O)C(C)O4)c(C)c(O)c3c(O)c2C(=O)[C@H]1O[C@H]1C[C@@H](O[C@H]2C[C@@H](O)[C@@H](O)C(C)O2)[C@H](O)C(C)O1 (stereo partly drawn) [formula XII, demycarosyl-MTM] | the least active |
| CO[C@H](C(=O)[C@@H](O)[C@@H](C)O)[C@@H]1Cc2cc3cc(O[C@H]4CC[C@H](O)C(C)O4)c(C)c(O)c3c(O)c2C(=O)[C@H]1O[C@H]1C[C@@H](O[C@H]2C[C@@H](O[C@H]3C[C@](C)(O)[C@H](O)C(C)O3)[C@@H](O)C(C)O2)[C@H](O)C(C)O1 (stereo partly drawn) [formula XIII] | the least active |
